Measured affinities in a library of Ab-14 heavy chain variants

All variants were tested on one target, the spike HR2 peptide PDVDLGDISGINAS (SARS-CoV-2).

Parent: Ab-14, a human scFv built as VH, three GGGGS repeats, VL. Only the CDRs of the heavy chain vary.
VH: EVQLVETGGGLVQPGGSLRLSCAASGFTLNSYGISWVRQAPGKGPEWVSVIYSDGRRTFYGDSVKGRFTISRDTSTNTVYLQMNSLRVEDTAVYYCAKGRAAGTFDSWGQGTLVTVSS
VL: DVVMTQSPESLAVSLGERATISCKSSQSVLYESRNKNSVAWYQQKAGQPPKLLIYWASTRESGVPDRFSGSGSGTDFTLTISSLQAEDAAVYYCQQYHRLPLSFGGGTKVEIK

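Phage display of a naive human antibody library on the peptide gave the parent. These sequences belong to a second round, designed from the earlier measurements on random variants of the parent. Several design methods are mixed in this list. The scFvs were displayed on barcoded MATa yeast, the peptide on MATalpha yeast. The frequency of each diploid, read from paired DNA barcodes, reflects how well the two displayed proteins bind. Scores were corrected for input abundance and mapped to Kd with protein pairs of known affinity run in the same pool. Each pool was mated in six replicate cultures.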

The parent's heavy chain CDRs are GFTLNSYGIS, VIYSDGRRTFYGDSVK, GRAAGTFDS; each variant's own CDRs replace them letter for letter.
This list holds designs with more than six substitutions.
Each Kd is an estimate from the mating assay, the geometric mean of the replicates in which the pair was seen; lower is stronger.
An entry "no signal" has no value in the source: the pair was not observed among the diploids in any replicate. This suggests poor binding but is not conclusive.

| CDR-H1 | CDR-H2 | CDR-H3 | Kd | replicates with signal |
|---|---|---|---|---|
| GFDLNEYGIS | VIYADGRRTAYADSVK | GQAAGTFDI | 320 pM | 6 of 6 |
| GFSLGEYGIS | VIYADGKRDVYADSVK | GSESGWFDI | 300 nM | 2 of 6 |
| GFDLNEYGIS | VIYADGMRTAYADSVK | GETAGTFDQ | 420 pM | 6 of 6 |
| GFDLNEYGIS | VIYADGQRTAYANDVK | GEVAGTFDV | 300 pM | 6 of 6 |
| GFDLEEYGIS | VIYADGRRTFYSDSVK | GQTAGTFDL | 160 pM | 6 of 6 |
| GFNLNEYGIS | VIYADGKRTFYADSVK | GEIAGTFDV | 270 pM | 6 of 6 |
| GFDLEDYGIS | VIYADGMRTAYSDSVK | GNQAGTFDV | 490 pM | 6 of 6 |
| GYDLNEFGIS | VIYADGSRVAYADDVK | GNVAGHILS | no signal | 0 of 6 |
| GFDLNEYGIS | VIYADGVRTAYQDSVK | GNQAGTFDV | 2.6 nM | 6 of 6 |
| GFDLDEYGIS | VIYADGKRTAYSDSVK | GETAGTFDT | 4.1 nM | 6 of 6 |
| GYDIDEYGIS | VIYADGMRTAYQNNVK | GEQDGLMTF | no signal | 0 of 6 |
| GMDLQEYGIS | VIYSDGVREAYTNDFK | GQIAGTIDL | no signal | 0 of 6 |
| GFDLNEYGIS | VIYADGMRTAYAESVK | GNVAGTFDI | 510 pM | 6 of 6 |
| GFDLNEYGIS | VIYADGMRTFYDDSVK | GQLAGTFDV | 210 pM | 6 of 6 |
| GFNLDEFGIS | VIYADGMRRAYSDEVK | GGFSDILLM | no signal | 0 of 6 |
| GYSLQDYGIS | VIYADGKRKSYAEDVK | GNSAGSFMD | no signal | 0 of 6 |
| GFDLNEYGIS | VIYADGMRTAYANDVK | GEVAGTFDQ | 380 pM | 6 of 6 |
| GFDLNEYGIS | VIYADGRRTAYIDSVK | GHLAGTFDE | 660 pM | 6 of 6 |
| GFDLDEYGIS | VIYADGKRTFYADSVK | GNVAGTFDT | 110 pM | 6 of 6 |
| GFDLNEYGIS | VIYADGRRTFYADSVK | GKNAGTFGV | 330 pM | 6 of 6 |
| GFDLNEYGIS | VIYADGKRTYYADSVK | GETAGTFDV | 470 pM | 6 of 6 |
| GFDLDEYGIS | VIYADGMRTYYADSVK | GNTAGTFDV | 9.4 nM | 6 of 6 |
| GFDVDEFGIS | VIYADGHRTSYAADVK | GSQVGNGLV | 65 nM | 6 of 6 |
| GFTLNDDGIS | VKHSDGRRQQYIDSVK | GRADGTFDS | no signal | 0 of 6 |
| GFDLNEYGIS | VIYADGRRTAYIDSVK | GEVAGTFDK | 270 pM | 6 of 6 |
| GFDLNEYGIS | VIYADGVRTAYVDDVK | GNVAGTFDI | 360 pM | 6 of 6 |
| GFDLNEYGIS | VIYADGQRTAYADSVK | GNQAGTFDV | 240 pM | 6 of 6 |
| GFDINEMGIS | VIYADGQRLAYAQEVK | GENTGTFGF | 250 nM | 3 of 6 |
| GFDLNEYGIS | VIYADGMRTFYADSVK | GEAGGTFDV | 1.9 nM | 6 of 6 |
| GFDLNEYGIS | VIYADGRRTQYIDSVK | GNVAGTFDF | 400 pM | 6 of 6 |
| GFDLNEYGIS | VIYADGKRTFYTDSVK | GANAGTFDV | 150 pM | 6 of 6 |
| GFNLDEYGIS | VIYADGMRTAYADSVK | GNTAGTFDI | 1.1 nM | 6 of 6 |
| GKDIEEYGIS | VIYADGMRQAYADSVK | GQVAGTGKF | no signal | 0 of 6 |
| GFDLNEYGIS | VIYADGKRTAYADDVK | GQNAGTFDV | 250 pM | 6 of 6 |
| GFDLNEYGIS | VIYADGRRTQYIDSVK | GENAGTFDL | 830 pM | 6 of 6 |
| GFDLNEYGIS | VIYADGRRTSYLDSVK | GEAAGTFDV | 860 pM | 6 of 6 |
| GFDLNEYGIS | VIYADGRRTFYADSVK | GQVAGTFDV | 170 pM | 6 of 6 |
| GFNLNEYGIS | VIYADGRRTAYADSVK | GQIAGTFDV | 15 nM | 6 of 6 |
| GFDLNEYGIS | VIYADGMRTAYADSVK | GEIAGTFDQ | 230 pM | 6 of 6 |
| GFDLNEYGIS | VIYADGRRTFYSDSVK | GQAGGTFDM | 3.5 nM | 6 of 6 |
| GFNLNEYGIS | VIYADGQRTKYIDDVK | GTNRVLGMG | no signal | 0 of 6 |
| GEDLLEYGIS | VIYADGKRVAYTNQVK | GNEAGFFTL | no signal | 0 of 6 |
| GFDLNEYGIS | VIYADGKRTFYADDVK | GENAGTFDV | 250 pM | 6 of 6 |
| GFNLDEYGVS | VIYADGNRTQYTENVK | GTNWGAVDL | no signal | 0 of 6 |
| FKIGEDYGIS | VIYADGLRTAYENSVK | GDVAGTFDL | 86 nM | 6 of 6 |
| GFDLNEYGIS | VIYADGHRTAYSDSVK | GQSAGTFDA | 330 pM | 6 of 6 |
| GFDLNEYGIS | VIYADGRRTAYSDSVK | GTVAGTFDV | 520 pM | 6 of 6 |
| GFDLNEYGIS | VIYADGKRTAYADDVK | GEVAGTFDM | 3.9 nM | 6 of 6 |
| GFDLGEYGIS | VIYADGHRRAYADDVK | GMHSGSVQT | no signal | 0 of 6 |
| GQDLEEFGIS | VIYADGMRAAYADNVK | GVKVGGVTI | no signal | 0 of 6 |
| GFEVDEYGIS | VIYADGKRSMYANKVK | GHIAGMMFV | 34 nM | 1 of 6 |
| GYDIQDYGIS | VIYADGVRTAYHDSVK | GQMAGFFIT | no signal | 0 of 6 |
| GFDINEYGIS | VIYADGRRTFYADSVK | GQTAGTFDS | 1.2 nM | 6 of 6 |
| GFDLNEYGIS | VIYADGMRTAYIDNVK | GEVAGTFDV | 740 pM | 6 of 6 |
| GFSLDEYGIS | VIYADGRRTFYADSVK | GESAGTFDS | 890 pM | 6 of 6 |
| GFYLNEYGIS | VIYADGQRKVYANNVK | GNFGGLQDY | no signal | 0 of 6 |
| GFNLNEYGIS | VIYADGRRKFYADSVK | GETAGTFDS | 430 pM | 6 of 6 |
| GFDINEYGIS | VIYADGRRKAYADTVK | GIDVYGKTV | no signal | 0 of 6 |
| GFDLTEYGIS | VIYADGRRTQYSDSVK | GLNGGIIVV | no signal | 0 of 6 |
| GFDLNEYGIS | VIYADGMRTFYTDSVK | GEAAGTFDA | 660 pM | 6 of 6 |
| GFDINEYGIS | VIYADGKRTAYADSVK | GEAAGTFDV | 1.3 nM | 3 of 6 |
| GFDLDEYGIS | VIYADGRRTFYSDSVK | GSEAGTFDV | 230 pM | 6 of 6 |
| GFDLEKYGIS | VIYADGIRKEYDQSVK | GQNAGAFTV | 730 nM | 1 of 6 |
| GFNLGEYGIS | VIYADGVRTAYVDKVK | GFGQVDSLI | no signal | 0 of 6 |

The last 6 entries again:

| CDR-H1 | CDR-H2 | CDR-H3 | Kd | replicates with signal |
|---|---|---|---|---|
| GFDLTEYGIS | VIYADGRRTQYSDSVK | GLNGGIIVV | no signal | 0 of 6 |
| GFDLNEYGIS | VIYADGMRTFYTDSVK | GEAAGTFDA | 660 pM | 6 of 6 |
| GFDINEYGIS | VIYADGKRTAYADSVK | GEAAGTFDV | 1.3 nM | 3 of 6 |
| GFDLDEYGIS | VIYADGRRTFYSDSVK | GSEAGTFDV | 230 pM | 6 of 6 |
| GFDLEKYGIS | VIYADGIRKEYDQSVK | GQNAGAFTV | 730 nM | 1 of 6 |
| GFNLGEYGIS | VIYADGVRTAYVDKVK | GFGQVDSLI | no signal | 0 of 6 |

The range of this assay differs from that of the first round, and the authors advise against merging the two.
Of ten entries with the parent sequence, four were seen in most replicates (averages 2.2 nM to 240 nM), three in one and three in none, so single entries are noisy.
The authors averaged sequences with at least three values out of six and counted those with two or fewer as poor binders.
Background: pairings of all heavy chain designs with three empty control strains gave a value in 1% of cases (median 120 nM, 5th percentile 7.0 nM). Values in that range, when seen in few replicates, are hard to tell from nonspecific mating.

Source: Li et al. 2023 (doi:10.1038/s41467-023-39022-2), MIT Lincoln Laboratory and A-Alpha Bio; data file from the FLAb repository.